{"source": "patent US12109176B1", "about": "“Effect of glycerol on biofilm forming bacteria and fungi that changes the microbes sensitivity to pro and anti-biofilm non-toxic, non-bonded plasma amino acids and amino acid derivatives” (priority 2023, dated 2024)", "key": {"[1]": {"system": "fungal biofilm (C. albicans)", "assay": "Fungal biofilm disruption assay", "format": "cell-based, Candida albicans"}, "[2]": {"system": "fungal biofilm (C. albicans)", "assay": "Fungal biofilm inhibition assay", "format": "cell-based, Candida albicans"}, "[3]": {"details": "Table F, in the presence of a sufficient concentration of glycerol"}}}
{"smiles": "N[C@@H](CCS)C(=O)O", "note": "[Homocysteine, L-homocysteine]", "values": [{"measurement": "Reduce or Inhibit F Biofilm (dots: Disruption Biofilm Assay)", "setting": "[1]; Table D, 0.1 to 5.0%", "result": "● (Single dot [ie. ●] signifies little effect on the Disruption Biofilm Assay (from about 10 to less than 30%))"}, {"measurement": "Reduce or Inhibit F Biofilm (dots: Disruption Biofilm Assay)", "setting": "[1]; [3]", "result": "● (Single dot [ie. ●] signifies little effect on the Disruption Biofilm Assay (from about 10 to less than 30%))"}, {"measurement": "Reduce or Inhibit F Biofilm (squares: Inhibition Biofilm Assay)", "setting": "[2]; Table D, 0.1 to 5.0%", "result": "▪ (Single square [ie. ▪] signifies little effect on the Inhibition Biofilm Assay (from about 10 to less than 30%))"}, {"measurement": "Reduce or Inhibit F Biofilm (squares: Inhibition Biofilm Assay)", "setting": "[2]; [3]", "result": "▪ (Single square [ie. ▪] signifies little effect on the Inhibition Biofilm Assay (from about 10 to less than 30%))"}]}
